Experimental findings from PubChem BioAssay AID602281 (The Scripps Research Institute Molecular Screening Center, 2012) are described below.

Chains of the proteins cited; added tags and fusions are not shown. Lines headed by an entry give the natural chain unless they say otherwise; changes in a name come on top.
UniProt Q00G26: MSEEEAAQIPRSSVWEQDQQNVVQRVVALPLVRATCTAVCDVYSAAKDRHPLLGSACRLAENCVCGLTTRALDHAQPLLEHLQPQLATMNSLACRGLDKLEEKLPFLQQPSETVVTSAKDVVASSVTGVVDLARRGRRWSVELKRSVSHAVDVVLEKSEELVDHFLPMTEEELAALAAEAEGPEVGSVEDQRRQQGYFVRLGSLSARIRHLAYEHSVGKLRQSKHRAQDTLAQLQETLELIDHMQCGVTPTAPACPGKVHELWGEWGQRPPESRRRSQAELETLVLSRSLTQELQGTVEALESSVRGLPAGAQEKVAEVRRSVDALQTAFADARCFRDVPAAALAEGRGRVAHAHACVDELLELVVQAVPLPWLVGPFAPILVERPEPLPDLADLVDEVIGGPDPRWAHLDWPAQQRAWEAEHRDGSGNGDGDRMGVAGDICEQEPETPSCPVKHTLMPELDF
UniProt Q8WTS1: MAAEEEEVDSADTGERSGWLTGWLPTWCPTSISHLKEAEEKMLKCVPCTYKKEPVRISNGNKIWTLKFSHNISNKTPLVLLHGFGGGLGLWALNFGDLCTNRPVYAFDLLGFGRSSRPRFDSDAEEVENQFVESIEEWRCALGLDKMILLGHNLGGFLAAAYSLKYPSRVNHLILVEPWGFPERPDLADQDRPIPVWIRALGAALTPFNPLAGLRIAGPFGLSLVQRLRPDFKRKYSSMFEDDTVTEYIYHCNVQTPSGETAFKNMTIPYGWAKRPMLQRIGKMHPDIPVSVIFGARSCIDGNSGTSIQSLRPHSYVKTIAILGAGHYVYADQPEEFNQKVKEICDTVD

This is a selection; strong and weak results do not stand in their true shares. Activity calls are given as the source filed them.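 The calls were made as follows: active = inhibition above the mean inhibition across every tested compound plus 3 SD (cut at about 22% in these data); inactive = the rest.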

In the experiment the target is Perilipin-5 (Homo sapiens) + 1-acylglycerol-3-phosphate O-acyltransferase ABHD5 (Homo sapiens) (UniProt Q00G26+Q8WTS1). The experiment can be described thus: ABHD5-PLIN5 interaction inhibitors, primary screen, cell lysate, split luciferase complementation, luminescence (AID 602281).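 Also: 0% = DMSO only wells and the 100% control is not disclosed.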 As to conditions: Split G. princeps luciferase complementation, 4 h, at 4 µM, hits give high values.
On to `CN(CCCl)Cc1cc(Cl)c(NC2=NCCN2)c(Cl)c1`, for which the inhibition was inactive: 0.47%.

On to `CCOP(=O)(Nc1ccc(C)cn1)OCC`, for which the inhibition was inactive: -1.64%.

Consider `CCOP(=O)(NC(=NC(C)c1ccccc1)NC(C)c1ccccc1)OCC` (centres undefined), for which the inhibition is inactive: 4.85%.

With `CCC1=CC2Cc3nc4ccc(Cl)cc4c(N)c3C(C1)C2` (centres undefined), the inhibition is inactive: 2.25%.

With `O=P1(Nc2ccccn2)COc2ccccc2OC1`, the inhibition is inactive: 7.05%.

Turning to `CC(C)(C)C(=O)NC(Sc1ncccn1)C(Cl)(Cl)Cl` (centres undefined), the inhibition is inactive: -1.9%.

`Clc1n[nH]nc1-c1nn[nH][15n]1`: the inhibition was inactive: 0.61%.

Take `O=P1(N(CCCl)CCCl)NCCC(C(F)(F)F)O1` (centres undefined): the inhibition was inactive: -0.19%.

For the molecule `COc1ccccc1CNC(=O)COC(=O)C(O)(c1ccccc1)c1ccccc1`, the inhibition is inactive: -2.97%.

For `CC1(CBr)Cn2c(nc3ccccc3c2=O)S1` (centres undefined), the inhibition is inactive: -3.57%.

Regarding `CN(C(=O)Cc1ccc(Cl)c(Cl)c1)[C@@H]1CCCC[C@H]1N1CCCC1`, the inhibition is inactive: -1.19%.

For the molecule `CC(C)/C=N\N=C(\N)N[N+](=O)[O-]`, the inhibition is inactive: -3.17%.

Take `Cc1ccc(C(=O)OC2CN3CCC2CC3)cc1` (centres undefined): the inhibition was inactive: 0.6%.

In the case of `CC1CCC(C(C)C)C(OP(=O)(Nc2ccccn2)c2ccccc2)C1` (centres undefined), the inhibition was inactive: 1.35%.

For `Cc1nn(-c2ccccc2)c2c1P(=O)(N1CCOCC1)N(C)C(c1ccccc1)=N2` (centres undefined), the inhibition is inactive: 2.2%.

Take `CCCC1OP(=O)(Nc2ccccc2)OCC1CC` (centres undefined): the inhibition was inactive: 2.64%.

`O=C(/C=C/c1ccccc1)OC1CN2CCC1CC2` (centres undefined): the inhibition is inactive: 7.48%.

Regarding `CN(C)C1(CNC(=O)c2ccc(S(C)(=O)=O)cc2)CCCCC1`, the inhibition was inactive: 6.02%.

For the molecule `O=P1(Nc2ncccn2)COc2ccccc2OC1`, the inhibition was inactive: 3.25%.

Turning to `Cc1ccc(S(=O)(=O)N(CCCN)CCCc2c(C)nc(N)[nH]c2=O)cc1`, the inhibition was inactive: -1.95%.

Turning to `NS(=O)(=O)c1cccc(NC(=O)COC(=O)C(O)(c2ccccc2)c2ccccc2)c1`, the inhibition is inactive: 3.3%.

`O=P1(Nc2ccc(Br)cn2)COc2ccccc2OC1`: the inhibition was inactive: -1.4%.

As to `O=[As](O)(c1cccs1)c1cccs1`, the inhibition was inactive: 4.4%.

`Nc1cccc([As](=O)(O)c2ccccc2)c1`: the inhibition was inactive: -2.89%.

Turning to `CS(=O)(=O)c1cc([N+](=O)[O-])c2no[n+]([O-])c2c1`, the inhibition was inactive: -1.91%.

`O=P(Nc1nccs1)(c1ccccc1)c1nc2ccccc2s1` (centres undefined): the inhibition is active: 40.6%.

With `O=P(Nc1nccs1)(Oc1ccccc1)Oc1ccccc1`, the inhibition was inactive: -1.3%.

For the molecule `CCOP1(=S)c2c(C)nn(CCC#N)c2N=C(c2ccccc2F)N1C` (centres undefined), the inhibition is inactive: -6.47%.

For the molecule `O=C(O)COc1ccc([As](=O)(O)O)cc1[N+](=O)[O-]`, the inhibition was inactive: 6.62%.

Regarding `Nc1ccccc1[As](=O)(O)c1ccccc1`, the inhibition is inactive: 2.42%.

Take `NC(=O)Nc1ccc([As](=O)(O)O)cc1`: the inhibition is inactive: -1.98%.

For the molecule `CN(C(=O)Cc1ccc(Cl)c(Cl)c1)[C@H]1CC[C@@]2(CCCO2)C[C@@H]1N1CCCC1`, the inhibition was inactive: -1.84%.

Regarding `CN(C)C(=O)c1cc([N+](=O)[O-])cc2c1-c1c(cc([N+](=O)[O-])cc1[N+](=O)[O-])C2=O`, the inhibition is inactive: 3.46%.

On to `O=[N+]([O-])c1ccc2c(c1)nnn2O`, for which the inhibition was inactive: 0.91%.

In the case of `CCOP1(=S)c2c(C)nn(CCC#N)c2N=C(c2ccc(F)cc2)N1C` (centres undefined), the inhibition was inactive: 6.58%.

Turning to `CN(C(=O)Cc1ccccc1)[C@@H]1CC[C@]2(CCCO2)C[C@H]1N1CCCC1`, the inhibition was inactive: 4.55%.

In the case of `N#CCCN(C(=O)COC(=O)C(O)(c1ccccc1)c1ccccc1)c1ccc(F)cc1`, the inhibition was inactive: -10.3%.

Regarding `CS(=O)(=O)c1ccc(Cl)c(NC(=O)COC(=O)C(O)(c2ccccc2)c2ccccc2)c1`, the inhibition was inactive: -1.18%.

Turning to `COc1cc(C(=O)NCC2(N3CCOCC3)CCCCC2)cc(Cl)c1OC(C)C`, the inhibition was inactive: 1.15%.

For `O=[As](O)(O)c1cccnc1`, the inhibition is inactive: 7.3%.

As for `O=C(OC1CN2CCC1CC2)c1ccc(Cl)cc1` (centres undefined), the inhibition was inactive: 3.57%.

On to `O=[As](O)(c1cccc(O)c1)c1cccc(O)c1`, for which the inhibition was inactive: 3.07%.

In the case of `Cc1cccc(OCC(=O)OC2CN3CCC2CC3)c1` (centres undefined), the inhibition is inactive: 3.33%.

With `CCCOP(=S)(Nc1nc(N)cc(=O)[nH]1)OCCC`, the inhibition was inactive: -15.1%.

Consider `Cc1ccc(NCCc2c([N+](=O)[O-])cc([N+](=O)[O-])cc2[N+](=O)[O-])cc1`, for which the inhibition is inactive: 8.33%.

Turning to `Nc1cccc2c([As](=O)(O)O)cccc12`, the inhibition is inactive: -2.3%.

With `CCOP(=O)(Nc1cccc2ccccc12)OCC`, the inhibition is inactive: -4.03%.

On to `COc1cc(C2NCCC3(OCCO3)C2(C)C)cc(OC)c1OC` (centres undefined), for which the inhibition was inactive: 6.49%.

For the molecule `Cc1cc(=O)[nH]c(N[N+](=O)[O-])n1`, the inhibition was inactive: 3.64%.

On to `O=C(OC1CN2CCC1CC2)C12CC3CC(CC(C3)C1)C2` (centres undefined), for which the inhibition was inactive: -0.44%.

As to `Cc1c2c(nc3ccccc13)SC(C(Cl)Cl)C2` (centres undefined), the inhibition was inactive: -4.38%.

`COc1cc(I)ccc1[As](=O)(O)O`: the inhibition was inactive: 1.54%.

For `COc1ccc2nc(NP(=O)(c3ccccc3)c3ccccc3)sc2c1`, the inhibition was inactive: -0.47%.

Turning to `O=P1(N(CCCl)CCCl)OCCCN1CCCl` (centres undefined), the inhibition is inactive: 2.44%.

On to `O=P1(N(CCCl)CCCl)Nc2ccccc2N1`, for which the inhibition is inactive: -0.01%.

For the molecule `COc1ccc(N/C(=N/P(=O)(N2CCOCC2)N2CCOCC2)N2CCOCC2)cc1`, the inhibition was inactive: -2.39%.

With `O=[N+]([O-])c1cc(Oc2ccc([N+](=O)[O-])cc2C(F)(F)F)cc([N+](=O)[O-])c1`, the inhibition is inactive: 3.6%.

Regarding `COc1cc(C(=O)NCC2(N3CCOCC3)CCCCC2)ccc1OCC(C)C`, the inhibition is inactive: 1.34%.

For `O=[N+]([O-])c1ccc(-c2cc([N+](=O)[O-])c(O)c([N+](=O)[O-])c2)cc1`, the inhibition is inactive: -2.98%.

Take `C[As](=O)(O)c1cccc(C(=O)O)c1`: the inhibition was inactive: -1.41%.

Take `O=[As](O)(c1ccc(O)cc1)c1ccccc1O`: the inhibition was inactive: 2.25%.

`Cc1ccc2nc3c(c(C)c2c1)CC(C(Cl)Cl)S3` (centres undefined): the inhibition is inactive: -4.17%.

For `Cc1ccc(OP(=O)(Nc2ccc([N+](=O)[O-])cn2)Oc2ccc(C)cc2)cc1`, the inhibition is inactive: -0.45%.

`[N-]=[N+]=NC1CCCCC1NC(=O)c1cc([N+](=O)[O-])cc([N+](=O)[O-])c1` (centres undefined): the inhibition was inactive: -1.25%.

On to `CC(C)c1ccc(OP(=O)(Nc2ccccn2)Oc2ccccc2F)cc1` (centres undefined), for which the inhibition was inactive: 3.78%.

`COC(=O)C1(C)COP(=O)(N2CCCCCC2)OC1` (centres undefined): the inhibition was inactive: 8.15%.

As to `ClCCSc1nnc(-c2cccnc2)o1`, the inhibition was inactive: -0.2%.

For the molecule `O=[N+]([O-])c1cc([N+](=O)[O-])c(-c2ccn[nH]2)s1`, the inhibition was inactive: 2.96%.

As to `CCN(CC)C(=S)SC(NC=O)C(Cl)(Cl)Cl` (centres undefined), the inhibition is inactive: 6.52%.

In the case of `O=C(OC1CN2CCC1CC2)c1cccc2[nH]cnc12` (centres undefined), the inhibition is inactive: -0.44%.

With `CC(C)NC(=O)NP(=O)(Oc1ccccc1)Oc1ccccc1`, the inhibition was inactive: -2.54%.

As to `CC1CCNP(=O)(N(CCCl)CCCl)O1` (centres undefined), the inhibition is inactive: -1.71%.

Take `O=C(O)C(O)c1ccc(N(CCCl)CCCl)cc1` (centres undefined): the inhibition is inactive: 4.18%.

In the case of `CCOC(=O)Nc1ccc([As](=O)(O)O)c(O)c1`, the inhibition was inactive: 1.6%.

With `Cc1cc(SC(NC(=O)c2ccccc2)C(Cl)(Cl)Cl)nc(C(C)C)n1` (centres undefined), the inhibition is inactive: 9.92%.

As for `CCCCOc1ccc(C(=O)NCC2(N3CCCCC3)CCCCC2)cc1OC`, the inhibition is inactive: 4.61%.

Consider `COP(=O)(OC)N1CC1c1ccccc1` (centres undefined), for which the inhibition was inactive: -6.34%.

On to `CCOC(=O)Nc1cccc([As](=O)(O)O)c1`, for which the inhibition was inactive: 7.43%.

As to `O=[N+]([O-])c1ccc(Nc2ccc(Oc3ccc([N+](=O)[O-])cc3[N+](=O)[O-])cc2)c([N+](=O)[O-])c1`, the inhibition is inactive: 1.33%.

Turning to `Cc1cc(SC(NC=O)C(Cl)(Cl)Cl)ncn1` (centres undefined), the inhibition was inactive: 0.48%.

For the molecule `O=P(Nc1ccccn1)(c1cccc2ccccc12)c1cccc2ccccc12`, the inhibition was inactive: -4.08%.

As to `COC(=O)C1(C)COP(=O)(N2CCCC2)OC1` (centres undefined), the inhibition was inactive: -9.3%.

For `COP1(=S)c2c(C)nn(CCC#N)c2N=C(c2ccc(F)cc2)N1C` (centres undefined), the inhibition was inactive: 1.67%.

As to `O=C(Nc1ccncc1[N+](=O)[O-])c1ccc([N+](=O)[O-])cc1[N+](=O)[O-]`, the inhibition was inactive: -3.31%.

Take `O=C(COc1ccccc1)OC1CN2CCC1CC2` (centres undefined): the inhibition was inactive: 0.7%.

In the case of `O=C(O)C(=O)c1ccc(N(CCCl)CCCl)cc1`, the inhibition is inactive: -1.7%.

As to `CCOC(=O)c1ccc(NC(=O)C(C)(CCl)SC)cc1` (centres undefined), the inhibition is inactive: -6.23%.

Take `CSc1ccc(Nc2c([N+](=O)[O-])cc([N+](=O)[O-])cc2[N+](=O)[O-])cc1`: the inhibition was inactive: 2.79%.

As for `O=C(OC1CN2CCC1CC2)c1cccc([N+](=O)[O-])c1` (centres undefined), the inhibition was inactive: 0.4%.

On to `CCC(C)N(CC(C)C)C(=S)SC(NC(C)=O)C(Cl)(Cl)Cl` (centres undefined), for which the inhibition was inactive: -6.13%.

Turning to `COc1ccc(C2=NCC(CBr)S2)cc1` (centres undefined), the inhibition was inactive: -13.6%.

As to `CC(=O)N1C2C3N(C(C)=O)C1C1N(C(C)=O)C(C(N1C(C)=O)N3C(C)=O)N2C(C)=O`, the inhibition is inactive: -3.03%.

Take `O=[N+]([O-])c1cccc2n[nH]nc12`: the inhibition is inactive: -1.72%.

`O=[N+]([O-])c1cc([N+](=O)[O-])c(CCNc2ccccc2)c([N+](=O)[O-])c1`: the inhibition is inactive: 2%.

As to `CCc1nc2c(n1)c1c(non1O)c1c2no[n+]1[O-]`, the inhibition was inactive: -5.39%.

Regarding `Cc1ccc(NP(=O)(Oc2ccccc2)Oc2ccccc2)nc1`, the inhibition was inactive: -5.55%.

With `C[N+]1=C2C=CC=CC=C2SC12C([N+](=O)[O-])=CC([N+](=O)[O-])=C[C-]2[N+](=O)[O-]` (centres undefined), the inhibition was inactive: -15.4%.

As to `Nc1ccc([As](=O)(O)c2ccc(N)cc2)cc1`, the inhibition is inactive: 11.8%.

In the case of `CCN(/C(=N/P(=O)(N1CCOCC1)N1CCOCC1)N1CCOCC1)c1ccc(OC)cc1`, the inhibition was inactive: -3.49%.
